Reference: patent publication US6444852B1, “Amines useful in inhibiting gas hydrate formation” (Goldschmidt Chemical Corporation, priority 1999, dated 2002)

Assay: Behavior (solubility/dispersibility) in water and […] brine at 5% concentration
Assay type: physicochemical
Details: 5% concentration as is
Description: The compounds tested are set forth in the following Table 1, CE# denotes a comparative example, whereas S# denotes a compound of the present invention.

C12-C14 oxypropyl dibutyl ammonium hydrobromide [Sample S7]
Behavior in Water: Soluble
